# Values of other authors as cited in patent US20210223230A1, “Neamine Compositions and Methods of Use Thereof” (President and Fellows of Harvard College, priority 2008, published 2021).
# Conditions: cited from earlier work
substance,measurement,value
neomycin,acute LD50 (subcutaneous) in mice,220 mg/kg
